Data taken from publication PMC9785231, “Synthesis and Pharmacological Evaluation of Enantiopure N-Substituted Ortho-c Oxide-Bridged 5-Phenylmorphans” (Molecules, 2022).

Assay: Microsomal metabolic stability, human liver microsomes
Conditions: HLM 0.5

Q: For `C[C@]12CC[C@H]3[C@@H](CCC4=CC(=O)CC[C@@]43C)[C@@H]1CC[C@@H]2O` [Testosterone], which T1/2 is on record?
A: 12.9 min
